{"source": "paper PMC4594035", "about": "“Xenopus borealis as an alternative source of oocytes for biophysical and pharmacological studies of neuronal ion channels” (Scientific Reports, 2015)", "key": {"rat ASIC1a [1]": {"molecular_target": "T1, rat ASIC1a (Rattus norvegicus, UniProt P55926)", "T1 construct": "expressed in transfected cells; host or cells: Xenopus laevis and Xenopus borealis oocytes (cRNA injection)", "T1 sequence (P55926 1-526)": "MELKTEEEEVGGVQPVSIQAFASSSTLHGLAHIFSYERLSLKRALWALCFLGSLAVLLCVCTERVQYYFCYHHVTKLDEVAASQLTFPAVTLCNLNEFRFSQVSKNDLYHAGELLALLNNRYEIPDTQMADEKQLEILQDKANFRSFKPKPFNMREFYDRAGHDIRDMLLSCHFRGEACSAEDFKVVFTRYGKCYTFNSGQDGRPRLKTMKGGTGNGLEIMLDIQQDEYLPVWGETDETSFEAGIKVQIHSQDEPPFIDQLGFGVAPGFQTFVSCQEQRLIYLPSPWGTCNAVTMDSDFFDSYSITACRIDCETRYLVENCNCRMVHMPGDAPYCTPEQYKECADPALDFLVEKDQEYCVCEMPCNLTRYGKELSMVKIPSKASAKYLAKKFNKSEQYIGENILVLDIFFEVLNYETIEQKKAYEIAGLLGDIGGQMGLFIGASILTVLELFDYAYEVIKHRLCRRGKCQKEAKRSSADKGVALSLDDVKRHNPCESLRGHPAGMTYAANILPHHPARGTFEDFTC", "experiment": "Inhibition of rat ASIC1a by Pc1a, two-electrode voltage-clamp in Xenopus oocytes", "assay_type": "cell-based", "conditions": "n = 9–12; for Slope (Hill coefficient): mean; for IC50: rounded value, Fig. 4e", "method": "X. laevis (Xenopus Express) and X. borealis (Nasco) oocytes were surgically removed from anaesthetised (Tricaine methanesulfonate, MS-222) female frogs and treated with collagenase (1 mg/ml; Sigma type I) for defolliculation. cRNAs were synthesised using an mMessage mMachine cRNA transcription kit (Ambion Inc., Austin, TX, USA) and injected into stage V–VI oocytes at 4–200 ng per cell. Oocytes were stored at 17 °C in ND96 solution (96 mM NaCl, 1.8 mM CaCl2, 2 mM KCl, 2 mM MgCl2, 5 mM HEPES, pH 7.4) supplemented with 2.5 mM pyruvic acid, 50 μg/mL gentamicin, and either 2.5% horse serum or 0.5 mM theophylline. Membrane currents were recorded 2–10 days after injection under voltage-clamp (Axoclamp 900A or Geneclamp 500B, Molecular Devices, CA, USA) using two standard glass microelectrodes of 0.5–2 MΩ resistance when filled with 3 M KCl solution. Data acquisition and analysis were performed using pCLAMP software (Version 9.2 or 10, Molecular Devices, Sunnyvale, CA, USA). All experiments were performed at room temperature (18–21 °C) in ND96 solution. Experiments containing peptides were performed in ND96 solution containing 0.1% fatty acid free-bovine serum albumin (Sigma). Recordings were performed as previously described for ASICs[30][31], GABAAR[32][33], GlyR[34], KV[6][8][35], and NaV[36] channels.\nAll data were analysed using Prism 6.0 (GraphPad Software, San Diego, CA, USA). The Hill equation was fitted to normalised concentration-response curves to obtain the half-maximal response (EC50, IC50, or pH50) and Hill coefficient (nH). Voltage-dependent activation curves were fit with the Boltzmann equation to obtain the V0.5 (the voltage corresponding to half-maximal effect). Data are shown as mean and 95% confidence intervals, and n represents the number of oocytes for a given experiment (taken from at least three different frogs). Most equivalence testing comparing X. laevis and X. borealis oocytes was performed using an unpaired Student’s t-test with 95% confidence intervals. […] For both t-tests, it was assumed data was sampled from Gaussian populations, and P values were calculated from two-tailed tests. P < 0.05 was considered statistically significant, unless stated otherwise."}, "rat ASIC1a [2]": {"molecular_target": "T1, rat ASIC1a", "conditions": "X. laevis oocytes; read-out: IC50, reported literature value; cited from earlier work", "text": "The two-electrode voltage-clamp method was also applied to a range of ligand-gated ion channels expressed in X. laevis and X. borealis oocytes. The pH-sensitivity of activation and steady-state desensitisation for homomeric acid-sensing ion channels (ASICs) were similar between species for ASIC1a (Fig. 4a), ASIC1b (Fig. 4b), ASIC2a (Fig. 4c), and ASIC3 (Fig. 4d). To assess any differences in the pharmacological properties of ASICs expressed in oocytes from each species, the activity of two known peptide inhibitors of ASICs was tested. π-TRTX-Pc1a (Pc1a, also known as PcTx1) inhibited rat ASIC1 ..."}}, "note": "Like-named read-outs stand apart in the source and are kept apart here.", "data": [{"smiles": "CC[C@H](C)[C@@H]1NC(=O)[C@@H](NC(=O)[C@H](CC(=O)O)NC(=O)[C@@H](N)CCC(=O)O)CSSC[C@@H]2NC(=O)[C@@H]3CSSC[C@@H](C(=O)N[C@H](C(=O)N4CCC[C@H]4C(=O)N[C@@H](CCCCN)C(=O)N[C@H](C(=O)N4CCC[C@H]4C(=O)N[C@@H](CCCCN)C(=O)N[C@H](C(=O)O)[C@@H](C)O)[C@@H](C)O)C(C)C)NC(=O)[C@H](C(C)C)NC(=O)[C@H](CCC(=O)O)NC(=O)[C@H](Cc4ccccc4)NC(=O)[C@H](CO)NC(=O)[C@H](CCCNC(=N)N)NC(=O)[C@H](CCCNC(=N)N)NC(=O)[C@H](CCCNC(=N)N)NC(=O)[C@H](CCCCN)NC(=O)[C@H](Cc4c[nH]c5ccccc45)NC(=O)[C@H](CSSC[C@H](NC(=O)CNC(=O)[C@H](CCCCN)NC(=O)[C@H](Cc4c[nH]c5ccccc45)NC(=O)[C@H](CCCCN)NC(=O)[C@@H]4CCCN4C1=O)C(=O)N[C@@H](C(C)C)C(=O)N[C@@H](CC(N)=O)C(=O)N[C@@H](CCCNC(=N)N)C(=O)N[C@@H](Cc1c[nH]cn1)C(=O)NCC(=O)N[C@@H](CC(=O)O)C(=O)N3)NC(=O)[C@H](CCC(=O)O)NC(=O)[C@H](CC(C)C)NC(=O)CNC(=O)[C@H](CCC(=O)O)NC2=O", "note": "[Pc1a]", "values": [{"measurement": "Slope (Hill coefficient)", "setting": "rat ASIC1a [1]; X. borealis oocytes", "result": 1.60}, {"measurement": "IC50", "setting": "rat ASIC1a [1]; X. borealis oocytes", "result": 1, "unit": "nM"}, {"measurement": "Slope (Hill coefficient)", "setting": "rat ASIC1a [1]; X. laevis oocytes", "result": 1.44}, {"measurement": "IC50", "setting": "rat ASIC1a [1]; X. laevis oocytes", "result": 1, "unit": "nM"}, {"measurement": "IC50", "setting": "rat ASIC1a [2]", "result": 0.9, "unit": "nM"}]}]}
